The results in this text go back to article PMC8657982, “Overlap and Specificity in the Substrate Spectra of Human Monoamine Transporters and Organic Cation Transporters 1, 2, and 3” (International Journal of Molecular Sciences, 2021).

Amino acid sequences for entries named in this document (tags omitted).
UniProt P31645, whole entry: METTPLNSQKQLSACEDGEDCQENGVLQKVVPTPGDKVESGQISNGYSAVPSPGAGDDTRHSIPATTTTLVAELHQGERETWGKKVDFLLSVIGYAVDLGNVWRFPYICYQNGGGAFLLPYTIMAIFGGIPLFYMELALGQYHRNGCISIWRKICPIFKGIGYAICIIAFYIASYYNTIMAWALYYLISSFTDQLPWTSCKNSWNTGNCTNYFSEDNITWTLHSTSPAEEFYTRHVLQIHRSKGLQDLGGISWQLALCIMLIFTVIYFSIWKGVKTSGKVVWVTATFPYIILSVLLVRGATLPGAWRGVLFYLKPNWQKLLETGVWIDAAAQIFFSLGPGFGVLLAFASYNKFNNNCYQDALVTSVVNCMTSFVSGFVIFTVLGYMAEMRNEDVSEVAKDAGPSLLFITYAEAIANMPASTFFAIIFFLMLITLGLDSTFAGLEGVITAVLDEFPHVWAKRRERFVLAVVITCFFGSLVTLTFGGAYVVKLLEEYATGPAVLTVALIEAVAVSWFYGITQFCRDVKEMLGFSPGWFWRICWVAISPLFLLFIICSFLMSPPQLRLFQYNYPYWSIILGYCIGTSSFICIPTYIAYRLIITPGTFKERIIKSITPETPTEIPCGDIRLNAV

The experiment has as its target SERT (Homo sapiens, UniProt P31645). The experiment can be described thus: Uptake into HEK293 cells overexpressing SERT (uptake ratio and concentration-dependent uptake).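 Note: incubation at 37 °C, intracellular compound quantified by HPLC-MS/MS after cell lysis, uptake normalized to total protein measured by bicinchoninic acid assay; ratio of uptake in SERT cells over empty-vector control cells.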

Molecules are shown by their SMILES.

Take `CC(Cc1ccc(O)cc1)NCC(O)c1cc(O)cc(O)c1` (stereo not shown) [Fenoterol, reference compound]: the “Uptake Ratio by Transporter SERT” value was 1.34.
